{"sequences": {"note": "Protein sequences, listed by entry. Tags and fused reporters are not part of them. Residues count along the entry.", "UniProt Q05BA5, 1-1403": "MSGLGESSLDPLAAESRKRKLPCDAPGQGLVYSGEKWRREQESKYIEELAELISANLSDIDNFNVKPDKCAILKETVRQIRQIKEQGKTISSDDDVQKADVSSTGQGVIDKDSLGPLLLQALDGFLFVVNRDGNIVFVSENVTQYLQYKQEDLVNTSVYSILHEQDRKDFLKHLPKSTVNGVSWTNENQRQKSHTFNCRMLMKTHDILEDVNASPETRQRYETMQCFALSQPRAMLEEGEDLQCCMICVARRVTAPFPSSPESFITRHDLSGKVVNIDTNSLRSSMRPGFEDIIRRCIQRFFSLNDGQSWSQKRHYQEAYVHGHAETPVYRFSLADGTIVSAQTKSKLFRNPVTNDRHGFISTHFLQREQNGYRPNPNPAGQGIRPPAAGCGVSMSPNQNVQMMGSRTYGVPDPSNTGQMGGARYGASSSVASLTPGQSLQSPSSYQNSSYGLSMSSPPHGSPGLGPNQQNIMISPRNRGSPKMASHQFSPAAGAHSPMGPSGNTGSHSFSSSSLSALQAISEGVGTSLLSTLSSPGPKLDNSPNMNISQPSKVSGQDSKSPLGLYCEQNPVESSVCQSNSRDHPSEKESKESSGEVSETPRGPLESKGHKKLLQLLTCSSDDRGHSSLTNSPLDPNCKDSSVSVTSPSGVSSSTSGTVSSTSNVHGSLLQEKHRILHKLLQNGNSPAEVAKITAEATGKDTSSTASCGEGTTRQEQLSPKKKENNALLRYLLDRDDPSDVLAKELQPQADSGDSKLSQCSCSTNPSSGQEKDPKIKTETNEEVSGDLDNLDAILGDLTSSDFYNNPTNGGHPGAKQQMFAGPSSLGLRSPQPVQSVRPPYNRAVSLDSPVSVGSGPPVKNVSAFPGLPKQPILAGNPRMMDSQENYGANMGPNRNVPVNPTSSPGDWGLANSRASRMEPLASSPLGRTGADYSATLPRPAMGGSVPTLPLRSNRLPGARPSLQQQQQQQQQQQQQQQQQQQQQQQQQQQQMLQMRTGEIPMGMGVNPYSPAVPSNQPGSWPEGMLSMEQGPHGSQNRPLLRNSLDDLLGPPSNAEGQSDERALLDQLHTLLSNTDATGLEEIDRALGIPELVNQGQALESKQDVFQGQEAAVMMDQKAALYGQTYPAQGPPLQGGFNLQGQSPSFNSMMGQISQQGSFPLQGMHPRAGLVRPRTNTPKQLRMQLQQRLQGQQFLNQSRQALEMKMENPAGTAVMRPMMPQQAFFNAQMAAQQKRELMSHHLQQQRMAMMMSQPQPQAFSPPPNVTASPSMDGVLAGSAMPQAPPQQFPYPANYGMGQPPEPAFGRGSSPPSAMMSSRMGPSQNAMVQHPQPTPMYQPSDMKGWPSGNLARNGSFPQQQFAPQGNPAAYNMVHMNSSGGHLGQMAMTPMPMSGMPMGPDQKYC"}, "source": "PubChem BioAssay AID1984", "about": "(Sanford-Burnham Center for Chemical Genomics, 2009)", "note": "The list shows a part of the results, in another mix than the full data. Some of these compounds have results that are not shown, active ones among them. Activity calls are given as the source filed them.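 The calls were made as follows: active = EGFP signal decrease of at least 30% at 10 µM or well 3 SD below plate mean, unless failing retest; inactive = the rest, including hits failing retest or dose response.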"}
{"target": "p/CIP-EGFP fusion (nuclear receptor coactivator 3, mouse) (UniProt Q05BA5)", "assay": "compounds lowering mouse p/CIP (NCOA3) protein levels – fluorescence, F442A cells, EGFP fusion, primary screen (AID 1984)", "settings": "16 h, at 10 µM, hits give high values"}
{"smiles": "CC(C)N1C(=O)CC2(CCN(CCOC(=O)C(O)(c3ccccc3)c3ccccc3)CC2)C1=O", "decrease of EGFP signal": "inactive: 5.3%"}
{"smiles": "CCN(CC)CC(C)C(C)OC(=O)C(O)(c1ccccc1)c1ccccc1", "note": "(centres undefined)", "decrease of EGFP signal": "inactive: 7.4%"}
{"smiles": "COc1cc(SC)ccc1C(=O)NCC1(N(C)C)CCCCC1", "decrease of EGFP signal": "inactive: 0.4%"}
{"smiles": "Cc1ccc(C(=O)NCC2(N3CCCCC3)CCCCC2)cc1", "decrease of EGFP signal": "inactive: -7.3%"}
{"smiles": "O=C(NCC1(N2CCCCC2)CCCCC1)c1cc([N+](=O)[O-])ccc1Cl", "decrease of EGFP signal": "inactive: -3.8%"}
{"smiles": "CN1[C@@H]2CC[C@H]1CC(OC(=O)C(O)(c1ccccc1)c1ccccc1)C2", "note": "(some centres undefined)", "decrease of EGFP signal": "inactive: 8.1%"}
{"smiles": "C=CCN1CCN(CCOC(=O)C(O)(c2ccccc2)c2ccccc2)CC1", "decrease of EGFP signal": "inactive: -5.7%"}
{"smiles": "O=C(NCC1(N2CCCCC2)CCCCC1)c1cc(F)c(F)cc1Cl", "decrease of EGFP signal": "inactive: -7.6%"}
{"smiles": "CCN1CCCC(OC(=O)C2(O)c3ccccc3C=Cc3ccccc32)C1", "note": "(centres undefined)", "decrease of EGFP signal": "inactive: -4.5%"}
{"smiles": "Cc1cc(C(=O)NCC2(N3CCCCC3)CCCCC2)ccc1[N+](=O)[O-]", "decrease of EGFP signal": "inactive: -15.2%"}
{"smiles": "O=C(NCC1(N2CCCCC2)CCCCC1)c1cccc(Br)c1", "decrease of EGFP signal": "inactive: -3.9%"}
{"smiles": "COc1ccc(C(=O)NCC2(N(C)C)CCCCC2)cc1", "decrease of EGFP signal": "inactive: -1.6%"}
{"smiles": "Cc1ccccc1C(=O)NCC1(N2CCCCC2)CCCCC1", "decrease of EGFP signal": "inactive: -14.9%"}
{"smiles": "CN(C)c1ccc(C(=O)NCC2(N(C)C)CCCCC2)cc1", "decrease of EGFP signal": "inactive: -8.9%"}
{"smiles": "CN(C)C1CCCC1OC(=O)C(O)(c1ccccc1)c1ccccc1", "note": "(centres undefined)", "decrease of EGFP signal": "inactive: -19.9%"}
{"smiles": "COc1cccc(C(=O)NCC2(N3CCCCC3)CCCCC2)c1", "decrease of EGFP signal": "inactive: -11.8%"}
{"smiles": "COc1ccc(Cl)cc1C(=O)NCC1(N(C)C)CCCCC1", "decrease of EGFP signal": "inactive: -12.7%"}
{"smiles": "O=C(NCC1(N2CCCCC2)CCCCC1)c1cccc(Cl)c1", "decrease of EGFP signal": "inactive: 11%"}
{"smiles": "CN(C)C1(CNC(=O)c2ccc(Br)cc2)CCCCC1", "decrease of EGFP signal": "inactive: -10.2%"}
{"smiles": "COc1cc(C(=O)NCC2(N(C)C)CCCCC2)c([N+](=O)[O-])cc1OC", "decrease of EGFP signal": "inactive: -9.7%"}
{"smiles": "COc1ccc(Br)c(C(=O)NCC2(N3CCCCC3)CCCCC2)c1", "decrease of EGFP signal": "inactive: 8.8%"}
{"smiles": "CN(C)c1cccc(C(=O)NCC2(N(C)C)CCCCC2)c1", "decrease of EGFP signal": "inactive: 3.5%"}
{"smiles": "CC(C)Oc1ccc(C(=O)NCC2(N(C)C)CCCCC2)cc1", "decrease of EGFP signal": "inactive: -8%"}
{"smiles": "O=C(OC1CN2CCC1CC2)C(CO)(c1ccccc1)c1ccccc1", "note": "(centres undefined)", "decrease of EGFP signal": "inactive: 6.3%"}
